High-throughput results: PubChem BioAssay, several laboratories
ASAP1 GAP inh = inhibitors of human ASAP1 ArfGAP activity, primary screen, biochemical, fluorescence polarization | Arf-GAP with SH3 domain, ANK repeat and PH domain-containing protein 1 (Homo sapiens), … | ASAP1-stimulated ARF1 GTP hydrolysis, GDP FP detection | inhibition, % at 16.5 µM | 360,000 tested, 0.19% active; in the data active means inhibition above about 25%
Yeast UUG start = alters start codon recognition fidelity in yeast; S. cerevisiae UUG-firefly luciferase reporter, luminescence/redox ratio; activity score, % at 18.7 µM; actives 0.13% (n = 350,000); AID 602363;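 active = replicate mean at a twofold rise or more, about +100% in these data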;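 also: firefly luciferase made from a UUG start codon reports start codon fidelity; reporter light over untreated wells divided by growth signal over untreated wells; some hits fall short of that in this replicate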
MC4R ag barr = MC4R agonists recruiting beta-arrestin, primary screen, cell-based, luminescence, agonist arm of biased-ligand search; Melanocortin receptor 4 (Homo sapiens), P32245; U2OS MC4R beta-arrestin complementation; percent of melanotan II response, DMSO zero; activation, % at 8.9 µM; 360,000 tested, 0.98% active;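 active means activation above a per-plate cutoff, the mean activation of sample wells on that plate plus 3 SD, cut at about 8% in these data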
MC4R antag cAMP = MC4R antagonists of cAMP signaling, primary screen, cell-based, TR-FRET, antagonist arm of biased-ligand search; Melanocortin receptor 4 (Homo sapiens), P32245; MC4R-expressing cells, MTII-stimulated cAMP, LANCE TR-FRET; inhibition, % at 6.5 µM; 360,000 tested, 0.48% active;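 active means inhibition above its plate's cutoff, the mean of tested wells on that plate plus 3 SD, cut at about 29% in these data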
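System – human MC4R-expressing U2OS cells · Also added – Melanotan II · Dosing – one concentration, 6.5 µM nominal · Timing – 30-min compound, 1-h challenge, 1-h detection, room temperature · Measured by – Eu-cAMP/anti-cAMP TR-FRET, emission 671 nm · Replicates – singlicate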
CendR NRP1 mod = modulators of CendR peptide binding to NRP-1, primary screen, biochemical, fluorescence polarization, uHTS; AID 602438, 2012; FAM-RPARPAR peptide binding to NRP-1; Neuropilin-1 (Homo sapiens), O14786; inhibition, % at 25 µM; 360,000 tested, 0.85% active;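 active means inhibition or corrected inhibition above about 18%, plus a signal ratio from 0.5 to 1.5, limit read from the data, passing the limit was not always enough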
ARFGAP1 inhibitor = inhibitors of rat ARFGAP1 GAP activity, primary screen, biochemical, fluorescence polarization, GDP tracer; inhibition, % at 16.5 µM; ADP-ribosylation factor GTPase-activating protein 1 (Rattus norvegicus), Q62848; 360,000 tested, 0.26% active; Arfgap1-stimulated ARF1 GTP hydrolysis, GDP FP detection; AID 651572, 2012;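 active means inhibition above a per-plate limit, mean inhibition of low control wells plus 3 SD, cut at about 25% in these data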
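Repeats: one replicate per compound; assay system: rat Arfgap1 catalytic domain, aa 1-136; times: enzyme reaction 120 min at 25 °C after 20 min preincubation; detection: FP of antibody-bound GDP Alexa 633 tracer, ex 620/em 688 nm; benchmarks: high control wells lacking Arfgap1, low control full reaction with DMSO; reagent: human ARF1(Δ1-17)-GTP substrate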
Of the large screens only hits and unclear results are named; the others gave an inactive call. The list is not random: actives were taken first. Their share in the collection is about 2.3%.

By UniProt entry, the sequences of proteins in these tests, tags left out. Residues count along the entry.
Melanocortin receptor 4 (Homo sapiens), P32245, UniProt P32245, whole entry, looked up: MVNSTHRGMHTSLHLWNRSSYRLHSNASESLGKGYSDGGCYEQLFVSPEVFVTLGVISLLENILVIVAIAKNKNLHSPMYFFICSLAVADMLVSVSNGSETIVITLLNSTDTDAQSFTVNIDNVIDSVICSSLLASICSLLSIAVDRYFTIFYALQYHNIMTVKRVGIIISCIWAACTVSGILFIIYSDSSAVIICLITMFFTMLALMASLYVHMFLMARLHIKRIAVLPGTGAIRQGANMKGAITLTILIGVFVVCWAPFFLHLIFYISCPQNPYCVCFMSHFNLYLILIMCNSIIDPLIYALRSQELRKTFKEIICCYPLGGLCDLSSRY
Neuropilin-1 (Homo sapiens), O14786, UniProt O14786, whole entry, looked up: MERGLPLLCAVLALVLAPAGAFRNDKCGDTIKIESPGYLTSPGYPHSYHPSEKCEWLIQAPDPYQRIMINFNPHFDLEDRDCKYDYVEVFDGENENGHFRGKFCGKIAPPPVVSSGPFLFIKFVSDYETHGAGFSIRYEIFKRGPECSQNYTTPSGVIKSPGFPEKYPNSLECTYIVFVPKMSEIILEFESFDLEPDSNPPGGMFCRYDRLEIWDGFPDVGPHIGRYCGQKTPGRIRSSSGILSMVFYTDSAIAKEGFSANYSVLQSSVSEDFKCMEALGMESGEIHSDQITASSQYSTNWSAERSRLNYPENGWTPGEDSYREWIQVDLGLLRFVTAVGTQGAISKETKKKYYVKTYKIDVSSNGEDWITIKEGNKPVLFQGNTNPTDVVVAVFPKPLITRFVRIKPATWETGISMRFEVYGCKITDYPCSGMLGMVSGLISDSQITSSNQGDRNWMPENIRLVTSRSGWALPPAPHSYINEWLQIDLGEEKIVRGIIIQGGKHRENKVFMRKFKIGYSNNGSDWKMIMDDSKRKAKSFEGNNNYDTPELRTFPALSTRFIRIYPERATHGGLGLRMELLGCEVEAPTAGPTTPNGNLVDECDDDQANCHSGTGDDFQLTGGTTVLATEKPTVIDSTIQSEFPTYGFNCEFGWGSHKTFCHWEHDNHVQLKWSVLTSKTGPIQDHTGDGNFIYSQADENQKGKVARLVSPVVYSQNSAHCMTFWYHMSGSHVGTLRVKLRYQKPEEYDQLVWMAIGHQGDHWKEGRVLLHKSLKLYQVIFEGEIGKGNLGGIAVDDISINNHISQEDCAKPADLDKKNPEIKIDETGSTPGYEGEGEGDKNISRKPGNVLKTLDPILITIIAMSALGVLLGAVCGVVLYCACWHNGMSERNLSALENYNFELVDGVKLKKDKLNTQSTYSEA
ADP-ribosylation factor GTPase-activating protein 1 (Rattus norvegicus), Q62848, UniProt Q62848, whole entry, looked up: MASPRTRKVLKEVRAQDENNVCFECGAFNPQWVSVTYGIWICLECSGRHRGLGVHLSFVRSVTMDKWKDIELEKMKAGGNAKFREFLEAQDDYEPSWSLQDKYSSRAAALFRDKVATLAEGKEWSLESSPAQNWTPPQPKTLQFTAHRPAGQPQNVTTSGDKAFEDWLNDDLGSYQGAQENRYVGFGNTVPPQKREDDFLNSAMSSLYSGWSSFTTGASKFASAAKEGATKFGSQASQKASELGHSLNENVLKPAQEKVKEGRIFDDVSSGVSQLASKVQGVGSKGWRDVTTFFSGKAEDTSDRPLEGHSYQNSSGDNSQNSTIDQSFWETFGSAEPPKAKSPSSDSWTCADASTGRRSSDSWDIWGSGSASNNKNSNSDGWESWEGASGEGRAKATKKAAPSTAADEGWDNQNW
ADP-ribosylation factor GTPase-activating protein 1 (Rattus norvegicus), Q62848, UniProt Q62848, 1-136 limits assumed: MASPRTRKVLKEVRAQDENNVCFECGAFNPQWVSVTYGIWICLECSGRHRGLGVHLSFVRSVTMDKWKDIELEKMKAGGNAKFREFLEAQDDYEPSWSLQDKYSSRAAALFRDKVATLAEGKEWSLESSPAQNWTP

Cc1noc(C)c1S(=O)(=O)Nc1ccc2c(c1)C(=O)N([C@@H](C)CO)C[C@@H](C)[C@@H](CN(C)C(=O)C1CCCCC1)OCCCC[C@@H](C)O2	none (no result: ASAP1 GAP inh, MC4R ag barr, MC4R antag cAMP, CendR NRP1 mod, ARFGAP1 inhibitor)
Cc1ccccc1CN(C)C[C@H]1OCc2cn(nn2)CCCC(=O)N([C@@H](C)CO)C[C@@H]1C	none (no result: ASAP1 GAP inh, MC4R ag barr, MC4R antag cAMP, CendR NRP1 mod, ARFGAP1 inhibitor)
CO[C@@H]1CN(C)C(=O)c2cc(NC(=O)C3CCOCC3)ccc2OC[C@@H](C)N(C(=O)C2CCOCC2)C[C@H]1C	none (no result: ASAP1 GAP inh, MC4R ag barr, MC4R antag cAMP, CendR NRP1 mod, ARFGAP1 inhibitor)
CCOC(=O)C1(Cc2ccccc2)NC(c2ccccc2F)C2C(=O)N(CC)C(=O)C21 (centres undefined)	CendR NRP1 mod 19.1
CCN1C(=O)C2C(c3ccccc3F)NC(Cc3ccc(O)cc3)(C(=O)OC)C2C1=O (centres undefined)	none
CC(=O)c1ccc2c(c1)C1C=CCC1C(C(=O)O)N2 (centres undefined)	none (no result: Yeast UUG start)
COc1cccc2c1NC(C(=O)O)C1CC=CC21 (centres undefined)	CendR NRP1 mod 42.1 (no result: ASAP1 GAP inh, Yeast UUG start, ARFGAP1 inhibitor)
COc1ccc(NC(=O)Nc2ccc3c(c2)C(=O)N([C@H](C)CO)C[C@@H](C)[C@@H](CN(C)C(=O)CCCN(C)C)OCCCC[C@@H](C)O3)cc1	none (no result: ASAP1 GAP inh, MC4R ag barr, MC4R antag cAMP, CendR NRP1 mod, ARFGAP1 inhibitor)
Cc1cccc(Cn2cc(SCC(=O)Nc3nccs3)c3ccccc32)c1	MC4R ag barr 8.7
Cc1ccc(Cn2cc(SCC(=O)Nc3nccs3)c3ccccc32)cc1	none
COCC#Cc1ccc2c(c1)O[C@@H](CN(C)Cc1ccncc1)[C@H](C)CN([C@H](C)CO)S2(=O)=O	none (no result: ASAP1 GAP inh, MC4R ag barr, MC4R antag cAMP, CendR NRP1 mod, ARFGAP1 inhibitor)
COc1ccc(N(CCCN2C(=O)c3cccc4cccc(c34)C2=O)C(=O)c2cccnc2)cc1	MC4R ag barr 11.0 (no result: Yeast UUG start)
O=S(=O)(c1ccc(S(=O)(=O)N(Cc2ccccc2)Cc2ccco2)cc1)N1CCCC1	MC4R ag barr 8.5
Cc1ccccc1-c1cnc2c(c1)C(=O)N([C@H](C)CO)C[C@H](C)[C@H](CN(C)C(=O)CN(C)C)O2	none (no result: ASAP1 GAP inh, MC4R ag barr, MC4R antag cAMP, CendR NRP1 mod, ARFGAP1 inhibitor)
COC(=O)C1Cc2c([nH]c3ccccc23)C2CCC(=O)N12 (centres undefined)	none (no result: Yeast UUG start)
COC(=O)[C@@H]1Cc2c([nH]c3ccccc23)C(C)(C)N1C(=O)CCl	MC4R ag barr 13.1
C[C@@H]1CN([C@H](C)CO)C(=O)c2cc(C#Cc3ccccc3F)cnc2O[C@H]1CN(C)C(=O)C1CCOCC1	none (no result: ASAP1 GAP inh, MC4R ag barr, MC4R antag cAMP, CendR NRP1 mod, ARFGAP1 inhibitor)
Cc1ccc(NC(=O)c2ccc(C#CC3(O)CCCCC3)cc2)cc1C	MC4R ag barr 9.0 (no result: Yeast UUG start)
Oc1ccccc1C=NCCN=Cc1ccccc1O	none (no result: Yeast UUG start)
Oc1ccccc1C=NCCN1CCN(CCN=Cc2ccccc2O)C1c1ccccc1O (centres undefined)	CendR NRP1 mod 22.1
Cc1cccc(C(C(C(=O)c2ccccc2)N2CCOCC2)N2CCOCC2)c1 (centres undefined)	none
CC(=O)C(C(c1ccccc1)N1CCCc2ccccc21)N1CCOCC1 (centres undefined)	CendR NRP1 mod 24.3
Cc1noc(C)c1S(=O)(=O)Nc1ccc2c(c1)CC(=O)N([C@H](C)CO)C[C@H](C)[C@H](CN(C)C(=O)NC(C)C)O2	none (no result: ASAP1 GAP inh, MC4R ag barr, MC4R antag cAMP, CendR NRP1 mod, ARFGAP1 inhibitor)
Cc1nn(Cc2ccccc2)c(Cl)c1C(=O)OCc1nnc(-c2ccc(Cl)cc2)o1	CendR NRP1 mod 38.4
O=C(OCc1nnc(-c2ccc(Cl)cc2)o1)c1ccc(O)cc1	CendR NRP1 mod 29.4 (no result: Yeast UUG start)
Cc1nn(Cc2ccccc2)c(Cl)c1C(=O)OCc1nnc(-c2ccccc2)o1	none
C[C@@H]1CCCCO[C@@H](CN(C)C(=O)Nc2ccc(F)cc2)[C@H](C)CN([C@@H](C)CO)C(=O)c2cc(NC(=O)Nc3ccc(C(F)(F)F)cc3)ccc2O1	none (no result: ASAP1 GAP inh, MC4R ag barr, MC4R antag cAMP, CendR NRP1 mod, ARFGAP1 inhibitor)
C[C@@H]1CN([C@@H](C)CO)C(=O)c2cc(C#CCN(C)C)cnc2O[C@H]1CN(C)Cc1ccccn1	none (no result: ASAP1 GAP inh, MC4R ag barr, MC4R antag cAMP, CendR NRP1 mod, ARFGAP1 inhibitor)
CSCCC(NC(=O)c1ccc(Cl)cc1Cl)C(=O)NCC(c1cccs1)N(C)C (centres undefined)	CendR NRP1 mod 25.5
CSCCC(NC(=O)c1ccc(Cl)cc1Cl)C(=O)NCc1ccccn1 (centres undefined)	none
O=C(C[C@@H]1CC[C@H](NC(=O)CCN2CCCCC2)[C@H](CO)O1)NCc1ccc(Cl)c(Cl)c1	none (no result: ASAP1 GAP inh, MC4R ag barr, MC4R antag cAMP, CendR NRP1 mod, ARFGAP1 inhibitor)
CN(C(=O)COc1ccccc1)c1nnc(-c2cccnc2)s1	none
CN(C(=O)COc1ccccc1)c1nnc(C23CC4CC(CC(C4)C2)C3)s1	CendR NRP1 mod 19.2
O=C(CCNS(=O)(=O)c1ccc(Br)cc1)NCCc1ccc(Cl)cc1	CendR NRP1 mod 26.6
COCC(=O)N1CC[C@@H]2[C@H]1c1cc(-c3cccc(OC)c3)ccc1N(C)[C@H]2CO	none (no result: ASAP1 GAP inh, MC4R ag barr, MC4R antag cAMP, CendR NRP1 mod, ARFGAP1 inhibitor)
COc1n[nH]c2nncnc12	CendR NRP1 mod 28.4
C=CCN=C(NC#N)SCc1ccccc1	CendR NRP1 mod 35.6
CC(C)N=C(NC#N)SCc1ccccc1	none
Nc1cc(-c2ccccc2)nn1Cc1ccccc1	CendR NRP1 mod 41.3 (no result: Yeast UUG start)
O=c1ccc(-c2ccccc2)nn1Cc1ccccc1	none
O=C(CCCn1c(=O)c2cccn2c2cccnc21)NCc1cccc(Br)c1	none
O=C(CCn1c(=O)c2cccn2c2cccnc21)NCc1cccc(Cl)c1	CendR NRP1 mod 27.0
O=C(C[C@@H]1CC[C@@H](NC(=O)Nc2cc(F)ccc2F)[C@H](CO)O1)NCc1ccc2c(c1)OCO2	none (no result: ASAP1 GAP inh, MC4R ag barr, MC4R antag cAMP, CendR NRP1 mod, ARFGAP1 inhibitor)
CCCN(CC(=O)Nc1cc(C)on1)CC(=O)Nc1ccc(F)c(F)c1F	CendR NRP1 mod 22.6
